The assay can be described thus: Nitric oxide release at 100 to 150 nM in pH7.4 in presence of GSH. Type of assay: functional. The method, boiled down: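 Performed in 0.1 M pH 7.4 phosphate buffer with 1 mM GSH, sparged with inert gas until detector baseline was steady. Prodrug stock injected to final 100–150 nM. NO release followed at 37 °C. Area under the release curve integrated to give mol NO released per mol compound.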

This is an account of results in ChEMBL document CHEMBL1144008, “Synthesis, nitric oxide release, and anti-leukemic activity of glutathione-activated nitric oxide prodrugs: Structural analogues of PABA/NO, an anti-cancer lead compound” (Bioorg Med Chem, 2008).

Regarding `CN(C)/[N+]([O-])=N/Oc1cc(OC(=O)c2ccc([N+](=O)[O-])cc2)c([N+](=O)[O-])cc1[N+](=O)[O-]`, the Activity was determined as 0%.
